Our source for the Kd values is publication PMC5794259, “Novel ATP-cone-driven allosteric regulation of ribonucleotide reductase via the radical-generating subunit” (eLife, 2018).

Protein sequences, listed by entry. Tags and fused reporters are not part of them.
UniProt A3XHF9, entry or part of it: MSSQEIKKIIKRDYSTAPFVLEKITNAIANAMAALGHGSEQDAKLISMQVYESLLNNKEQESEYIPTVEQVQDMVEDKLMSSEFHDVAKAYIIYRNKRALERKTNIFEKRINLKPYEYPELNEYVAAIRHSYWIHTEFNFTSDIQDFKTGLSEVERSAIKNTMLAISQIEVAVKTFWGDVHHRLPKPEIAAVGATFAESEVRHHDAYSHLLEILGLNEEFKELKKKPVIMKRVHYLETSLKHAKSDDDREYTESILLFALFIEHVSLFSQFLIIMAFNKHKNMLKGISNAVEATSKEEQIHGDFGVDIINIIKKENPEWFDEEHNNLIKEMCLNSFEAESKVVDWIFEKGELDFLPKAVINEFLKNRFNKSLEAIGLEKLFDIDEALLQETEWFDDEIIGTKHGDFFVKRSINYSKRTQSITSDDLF

For this assay, the target named is NrdB (Leeuwenhoekiella blandensis, UniProt A3XHF9). The experiment in a line: Isothermal titration calorimetry (ITC), nucleotide binding to NrdB. The settings on record: 10°C, one-set-of-sites model. The method, then: Isothermal titration calorimetry (ITC) experiments were carried out on a MicroCal PEAQ-ITC system (Malvern Instruments Ltd) in a buffer containing 25 mM HEPES (pH 7.65), 150 mM NaCl, and 10% glycerol, 2 mM tris(2-carboxyethyl)phosphine, and 5 mM MgCl2. Measurements were done at 10°C. The initial injection volume was 0.4 μl over a duration of 0.8 s. All subsequent injection volumes were 2–2.5 μl over 4–5 s with a spacing of 150 s between the injections. Data for the initial injection were not considered. For dATP binding analysis, the concentration of NrdB in the cell was 12 µM and dATP in syringe 120 or 140 µM. Reverse titrations were performed with 113 µM NrdB in the syringe and 12 or 30 µM dATP in the cell. For titration of dATP into NrdB∆99, protein concentration in the cell and dATP concentration in the syringe were 50 µM and 900 µM respectively. For dADP binding analysis, the NrdB concentration in the cell was 20–50 µM and ligand concentrations in the syringe were 500–750 µM. For titration of ATP into NrdB, cell and syringe concentrations were 50 and 1600 µM respectively. The data were analyzed using the built-in one set of sites model of the MicroCal PEAQ-ITC Analysis Software (Malvern Instruments Ltd). A fixed ligand/protein stoichiometry of 2 was used for dATP to NrdB titrations. […]
A general note: ITC needs no label: the signal is the heat of the interaction.

dADP: binding was put at a Kd of 15 ± 1.5 µM.
